Activity data for one compound are collected here from ChEMBL document CHEMBL1134364, “Antipsoriatic anthrones with modulated redox properties. 5. Potent inhibition of human keratinocyte growth, induction of keratinocyte differentiation, and reduced membrane damage by novel 10-arylacetyl-1,8-dihydroxy-9(10H)-anthracenones” (J Med Chem, 2001).

Bounds are passed on as bounds.

The test is described as follows: Deoxyribose degradation activity was measured as hydroxyl radical formation. Note: unit not given here.

In turn, `COc1ccc(CC(=O)C2c3cccc(O)c3C(=O)c3c(O)cccc32)cc1` came in with an Activity below 0.3.
